Results from US20060189679A1, “C10 cyclopropyl ester substituted taxane compositions” (priority 2005, published 2006).

What was measured:
[1] = test system: HT-29 human colon tumor xenografts; settings: mouse, in vivo
[2] = test system: Panc-1 human pancreatic tumor xenografts; settings: mouse, in vivo; for antitumor efficacy: iv
[3] = test system: MSTO-211H human mesothelioma xenografts

Compound	time for which growth of HT-29 xenografts was controlled ([1]; iv)	toxicity ([2]; nude)	body weight recovery ([3]; mouse, in vivo, po, 60 mg/kg)	# Death TR ([1]; female, athymic nude)	# Death NTR [1]	antitumor efficacy ([1]; iv)	# Death TR ([2]; female, nude)	# Death NTR [2]	antitumor efficacy [2]	# Death TR [1]	Max. % BW Loss; Day [1]	# Death TR [2]	#CR [2]	#PR [2]	#SD/PD [2]	slowing tumor growth ([3]; MSTO 61604, 30 mg/kg intravenously Q7Dx3)
CC(=O)O[C@@]12CO[C@@H]1C[C@H](O)[C@@]1(C)C(=O)[C@H](OC(=O)C3CC3)C3=C(C)[C@@H](OC(=O)[C@H](O)[C@@H](NC(=O)OCC(C)C)c4ccco4)C[C@@](O)([C@@H](OC(=O)c4ccccc4)C12)C3(C)C (some centres unmarked) [Compound 3102]	33 days	proved to be toxic for Panc-1 tumor implanted mice	recovered weight more rapidly than the Taxotere® group	–	–	–	–	–	–	–	–	–	–	–	–	–
CC(=O)O[C@H]1C(=O)[C@@]2(C)[C@H]([C@H](OC(=O)c3ccccc3)[C@]3(O)C[C@H](OC(=O)[C@H](O)[C@@H](NC(=O)c4ccccc4)c4ccccc4)C(C)=C1C3(C)C)[C@]1(OC(C)=O)CO[C@@H]1C[C@@H]2O [Paclitaxel, paclitaxel]	–	–	–	0	0	equally efficacious with orally administered compound 3102	0	0	equally efficacious with orally administered compound 3102	–	–	–	–	–	–	–
docetaxel	–	–	–	–	0	equally efficacious with orally administered compound 3102	–	0	equally efficacious with orally administered compound 3102	0	−19.9%;	0	0	5	1	only moderately effective in slowing tumor growth

Like-named read-outs stand apart in the source and are kept apart here.
